PubChem BioAssay AID588492 (Sanford-Burnham Center for Chemical Genomics, 2011)
Only a part is listed here, and it is no random draw. Activity calls are given as the source filed them.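 The calls were made as follows: active = compounds giving at least 50% protection of heart cells from peroxide-induced death in the single-dose screen, raw or plate-pattern-corrected value; inactive = the rest.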

assay: H9c2 cardiomyocyte survival under peroxide injury – uHTS, H9c2 cells, ATPLite luminescence, primary screen (AID 588492); conditions: H9c2 cardiomyocytes, 2 h, at 20 µM, active compounds read high;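 also: 0% = DMSO wells with peroxide and 100% = DMSO wells without peroxide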

Row | SMILES | protection from H2O2 cell death
1 | CCOC(=O)C(CC)C1=NC(C)(C)Cc2ccccc21.O=[N+]([O-])c1cc([N+](=O)[O-])c(O)c([N+](=O)[O-])c1 (stereo not given) | inactive: 2.7%
2 | O=[N+]([O-])c1cc([N+](=O)[O-])c(Nc2nnnn2CCO)c([N+](=O)[O-])c1 | inactive: -1%
3 | CN(C)C1(CNC(=O)c2ccc(S(C)(=O)=O)cc2)CCCCC1 | inactive: -0.4%
4 | CC1=C2N=C(C=C3N=C(C(C)=C4[N-][C@@](C)([C@@H]5N=C1[C@](C)(CCC(=O)NC[C@@H](C)OP(=O)([O-])O[C@H]1[C@@H](O)[C@@H](n6cnc7cc(C)c(C)cc76)O[C@@H]1CO)[C@H]5CC(N)=O)[C@@](C)(CC(N)=O)[C@@H]4CCC(N)=O)[C@@](C)(CC(N)=O)[C@@H]3CCC(N)=O)C(C)(C)[C@@H]2CCC(N)=O.[C-]#N.[Co+3] | inactive: -10.1%
5 | COc1ccccc1OP(C)(=O)Nc1c(C)cccc1C (stereo not given) | inactive: 0.8%
6 | CN1CCCCC1COC(=O)C1(O)c2ccccc2CCc2ccccc21 (stereo not given) | inactive: -0.9%
7 | CP(=O)(Nc1ccc(SC(F)(F)F)cc1)Oc1ccccc1 (stereo not given) | inactive: -7.7%
8 | CCCOc1ccc(NP(C)(=O)Oc2ccc(Cl)cc2)cc1 (stereo not given) | inactive: 3.5%
9 | O=[N+]([O-])c1cc([N+](=O)[O-])c(-n2nnc3ccccc32)c([N+](=O)[O-])c1 | inactive: 0.9%
10 | CN(Cc1cccnc1)C(=O)COc1ccc(Cl)c(Cl)c1.O=[N+]([O-])c1cc([N+](=O)[O-])c(O)c([N+](=O)[O-])c1 | inactive: -3.6%
11 | O=[N+]([O-])c1cc([N+](=O)[O-])c(-c2cnn(-c3ccccc3)c2)c([N+](=O)[O-])c1 | inactive: -7.5%
12 | Cc1nc2ccc3ccccc3c2s1.O=[N+]([O-])c1cc([N+](=O)[O-])c(O)c([N+](=O)[O-])c1 | inactive: 0.3%
13 | COc1ccccc1OP(C)(=O)Nc1cccc(Br)c1 (stereo not given) | inactive: 0.8%
14 | COc1cc(C(=O)NCC2(N3CCOCC3)CCCCC2)cc(Cl)c1OC(C)C | inactive: -6.4%
15 | Cc1cc(C)cc(OP(C)(=O)Nc2ccc(C)cc2C)c1 (stereo not given) | inactive: 2.9%
16 | CCOC(=O)c1ccc(NP(C)(=O)Oc2cc(C)cc(C)c2)cc1 (stereo not given) | inactive: -0.5%
17 | CP(=O)(Nc1cccc(Br)c1)Oc1ccccc1 (stereo not given) | inactive: 3.5%
18 | Cc1cc(C)cc(OP(C)(=O)Nc2ccccn2)c1 (stereo not given) | inactive: -2.7%
19 | Cc1ccc(C)c(NP(C)(=O)Oc2ccccc2)c1 (stereo not given) | inactive: 11.2%
20 | O=C(O)c1cccc(Nc2c([N+](=O)[O-])cc([N+](=O)[O-])cc2[N+](=O)[O-])c1 | inactive: -4%
